This note sets out measurements from PubChem BioAssay AID1224905 (ICCB-Longwood Screening Facility, Harvard Medical School, 2016).

The chains behind the UniProt entries cited, without tags or fusion partners.
UniProt P08753, whole entry, looked up: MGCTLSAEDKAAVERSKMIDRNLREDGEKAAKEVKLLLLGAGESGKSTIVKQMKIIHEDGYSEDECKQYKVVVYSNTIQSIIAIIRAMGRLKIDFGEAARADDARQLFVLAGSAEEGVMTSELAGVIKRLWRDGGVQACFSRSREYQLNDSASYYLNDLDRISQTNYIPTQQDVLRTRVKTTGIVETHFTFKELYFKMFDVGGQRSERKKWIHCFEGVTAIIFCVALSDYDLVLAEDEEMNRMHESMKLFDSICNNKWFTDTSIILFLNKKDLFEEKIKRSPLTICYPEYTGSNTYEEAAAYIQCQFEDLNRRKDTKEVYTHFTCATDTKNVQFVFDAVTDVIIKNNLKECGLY

Out of some 210,000 compounds screened, about 880 (0.42%) were called active. This excerpt belongs to a sample that is enriched for actives. A number with no mark means an inactive call.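 Rule for the calls: active = replicate mean at 85% of control or lower with very high polarization wells dropped (limit read from the data); inactive = the rest.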

The target in the experiment is Guanine nucleotide-binding protein G(i) subunit alpha-3 (Rattus norvegicus) (UniProt P08753). The experiment in a line: disruptors of GIV-Galphai3 protein-protein interaction – biochemical, fluorescence polarization, FITC-GIV GBA peptide, rat Galphai3, primary screen (AID 1224905).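 Note: lower values mean more displacement of the GIV peptide from Galpha-i3.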 The settings on record: Galpha-i3/FITC-GIV peptide fluorescence polarization, 90 min; active compounds read low; scaled: aluminum fluoride 0%, vehicle 100%.
Turning to `O=C(NCc1ccco1)c1cc2nc(-c3ccc(Cl)c(Cl)c3)cc(C(F)(F)F)n2n1`, the percent of control (FP) was 101%.
The same measure for `O=C(O)c1cc(NS(=O)(=O)c2ccc3c(c2)CCCC3)cnc1N1CCOCC1`: 80.8% (active).
In the case of `O=C(O)c1cc(NS(=O)(=O)c2cc(F)ccc2F)cnc1N1CCC(N2CCCCC2)CC1` it was 93.7%.
The same measure for `Cn1c(=O)n(C)c2cc(N3CCOCC3)c(NS(=O)(=O)c3ccc4c(c3)CCCC4)cc21`: 103%; for `O=C(CSc1nnc(C2COc3ccccc3O2)n1-c1ccccc1)c1cccc([N+](=O)[O-])c1` (stereo not given): 99.2%.
As to `COCCNC(=O)Cn1cc(/C=C2\C(=O)NC(=O)N(C3CCCCC3)C2=O)c2ccccc21`, the percent of control (FP) was -38.3% (active).
In the case of `COc1ccccc1N1C(=O)NC(=O)/C(=C/c2cn(C(C)=O)c3ccccc23)C1=O` it was 118%; in that of `Cc1cc(Br)ccc1N1C(=O)NC(=O)/C(=C/c2cn(CC(=O)N3CCOCC3)c3ccccc23)C1=O`, 103%; in that of `NC(=O)c1nsc2c(=O)n(CC(=O)NCc3ccco3)cnc12`, 95.4%.
In the case of `CCOC(=O)c1c(NC(=S)NC(=O)c2ccccc2)sc2c1CC(C)(CC)OC2` (stereo not given), the percent of control (FP) was 107%.
In the case of `Cc1cc(C)c2[nH]c(=O)c(NC(N)=S)nc2c1` it was 109%.
The same measure for `Cc1c(C(=O)NCC2COc3ccccc3O2)sc2ncnc(N3CCCCC3C)c12` (stereo not given): 103%; for `COc1ccccc1N(Cc1nc2nc(C)cc(C)n2n1)C(=O)C(C)(C)C`: 105%.
Turning to `COc1cc(-c2noc(-c3cc(-c4cc(C)ccc4C)n[nH]3)n2)ccc1OC(C)C`, the percent of control (FP) is 109%.
The same measure for `O=C(NCc1ccc2c(c1)OCO2)C1CCCN(S(=O)(=O)N2CCOCC2)C1` (stereo not given): 105%; for `CN1C(=O)/C(=C/c2ccco2)SC1=Nc1cccc(C(=O)O)c1`: 103%.
Regarding `CN1CCN(NC(=O)CCN2C(=O)/C(=C\c3ccco3)SC2=S)CC1`, the percent of control (FP) was 106%.
Consider `O=C(O)CCC(C(=O)O)N1C(=O)/C(=C\c2ccco2)SC1=S` (stereo not given), for which the percent of control (FP) was 79.9% (active).
The same measure for `COc1ccc(S(=O)(=O)N2CCC(NC(=O)NCc3ccc(C)cc3)CC2)cc1`: 98.6%; for `O=C(NCCCN1CCC(N2CCCCC2)CC1)c1nnc(C(=O)Nc2ccccc2)s1`: 101%.
The same measure for `O=C(CCc1ccccc1)N1CCN(C(=O)c2cc3cc(Br)ccc3[nH]2)CC1`: 108%; for `CN1C=C/C(=C\C=C2/C=Nc3ccccc32)c2ccccc21`: -76.3% (active).
In the case of `CCCCN(CCCNC(=O)Nc1cn(CC(C)C)c(=O)c2ccccc12)Cc1ccccc1` it was 98.7%; in that of `COc1ccc(S(=O)(=O)Nc2cc(C(=O)O)cnc2N2CCC(Cc3ccccc3)CC2)cc1`, 102%.
With `Cc1ccc(N2C(=O)/C(=C/c3ccc(OCC(=O)O)c(Br)c3)C(=O)NC2=S)cc1`, the percent of control (FP) was 82.1% (active).
For the compound `COc1ccc(N2C(=O)/C(=C/c3cc(Cl)c(OCC(=O)O)c(Cl)c3)C(=O)NC2=S)cc1`, the percent of control (FP) is 94.6%.
In the case of `COC(=O)COc1ccc(/C=C2\C(=O)NC(=S)N(c3ccc(Br)cc3)C2=O)cc1OC` it was 104%.
The same measure for `Cc1oc(C2CCN(C(=O)Cc3ccsc3)CC2)nc1C(=O)N1CCCC1`: 99.3%; for `CC(C)CC(C(=O)Nc1ccc(Cl)cc1)N1C(=O)c2ccccc2C1=O` (stereo not given): 108%.
The same measure for `CCOC(=O)c1c(NC(=O)C(C)Sc2nnc(CNC(=O)c3cccs3)n2C2CCCCC2)sc2c1CCCC2` (stereo not given): 109%.
With `CC[n+]1c(C)n(-c2ccccc2)c2ccc(N)cc21`, the percent of control (FP) was 101%.
In the case of `CC[n+]1c(/C=C/C=C2\N(C)c3ccccc3C2(C)C)n(-c2ccccc2)c2ccc(Cl)cc21` it was -32.2% (active); in that of `COc1ccccc1CNC(=O)C1CCCN1c1nn2c(=O)cc(C)nc2s1` (stereo not given), 96.8%.
The same measure for `O=C(/C=C/c1ccccc1)Nc1cc(C(=O)N2CCc3ccccc3C2)ccc1N1CC2CC(C1)c1cccc(=O)n1C2` (stereo not given): 108%; for `CCNc1cc(Nc2ccccc2)c2c3c(onc13)-c1ccccc1C2=O`: 104%.
The same measure for `CCOC(=O)N1CCN(c2cc(Nc3c(C)cc(C)cc3C)c3c4c(onc24)-c2ccccc2C3=O)CC1`: 140%.
Regarding `CCN(CC)c1cc(NC2CCCCC2)c2c3c(onc13)-c1ccccc1C2=O`, the percent of control (FP) is -7.19% (active).
The same measure for `CC1CCN(S(=O)(=O)c2ccc3nn(CC(=O)OC(C)C)c(=O)n3c2)CC1`: 103%; for `COc1ccccc1-c1c(C(F)(F)F)oc2c(CN3CCN(C)CC3)c(O)ccc2c1=O`: 102%.
In the case of `Cc1nn(CCC(=O)NC2CCCC2)c(=O)c2nn(-c3ccccc3)c(C)c12` it was 98.5%; in that of `CC(=O)Nc1ccc(Nc2c3c4c(cccc4[nH]c2=O)C(=O)c2ccccc2-3)cc1`, 60.9% (active).
The same measure for `CC(C)c1ccc(NC(=O)c2ccc3c(O)c(S(=O)(=O)c4ccccc4)c(=O)[nH]c3c2)cc1`: 98.9%; for `CC(=O)Nc1ccc(NS(=O)(=O)c2cc(S(=O)(=O)Nc3ccc(NC(C)=O)cc3)c3cccc4c3c2NC4=O)cc1`: 108%; for `CCC(C)OC(=O)C1=C(C)NC2=C(C(=O)CC(c3ccc(OC)cc3)C2)C1c1cc2c(cc1[N+](=O)[O-])OCO2` (stereo not given): 103%.
As for `CCCCc1nnc2sc(-c3cccc(N(C)C)c3)nn12`, the percent of control (FP) is 97.3%.
In the case of `Cc1nn(C)c(C)c1CCN(C)C(=O)Nc1ccc(Br)cc1F` it was 105%; in that of `COc1ccc(-n2ccc(=O)c(-c3nc(-c4ccc(F)c(Cl)c4)no3)n2)cc1`, 102%; in that of `Fc1cccc(CNC2=NCCNC23CCCCCC3)c1`, 112%.
As to `COC1=C(N2CCOCC2)C(=O)c2ccccc2C1=O`, the percent of control (FP) was 81.8% (active).
The same measure for `Cc1cc(N2CCOCC2)ccc1C=C1C(=O)c2ccccc2C1=O`: 123%.
For `COc1ccc(N2CCN(C(C)=C3C(=O)c4ccccc4C3=O)CC2)cc1`, the percent of control (FP) was 97.8%.
Turning to `Nc1nc(=O)n(C2OC(CO)C(O)C2O)cc1Br` (stereo not given), the percent of control (FP) was 107%.
For `CCN1CCN(Cc2c(O)ccc3c(=O)c(Oc4ccccc4Br)c(C(F)(F)F)oc23)CC1`, the percent of control (FP) was 96.7%.
Turning to `Cn1nc(-c2ccccc2F)c2cc(C(=O)Oc3ccc4cnccc4c3)sc21`, the percent of control (FP) was 109%.
The same measure for `N#CC1=C2Sc3ccccc3N2CC1=O`: -54.5% (active); for `CCOC(=O)c1[nH]c(=O)[nH]c1CSc1nnc(SCc2[nH]c(=O)[nH]c2C(=O)OCC)s1`: 118%.
In the case of `N#CSc1cc(SC#N)c(N)nc1N` it was 16% (active); in that of `COc1cccc(N/C(SCc2ccccc2C)=C(/C#N)C(=O)NCCc2ccc(OC)c(OC)c2)c1`, 104%; in that of `CCC(C)OC(=O)C1=C(C)NC(=O)NC1c1ccc(OC)c(OCc2ccccc2)c1` (stereo not given), 99.4%.
In the case of `CCOC(=O)c1ccc(N2N=C(C(F)(F)F)/C(=C/c3cc(Cl)c(O)c(OC)c3)C2=O)cc1` it was 109%; in that of `CCOc1cc(/C=C2/C(=O)N(c3nn[nH]n3)N=C2C)cc(Cl)c1OCC`, 74.3% (active); in that of `COc1cc(C=C2C(=O)NC(=O)NC2=O)cc(Cl)c1OCCOc1ccc(C)cc1`, 103%.
Turning to `O=C(C1CCN(c2nc(-c3ccc(Cl)cc3)no2)CC1)N1CCC(N2CCCCC2)CC1`, the percent of control (FP) was 104%.
On to `CCSCCOC(=O)C1=C(C)N(C)C(=O)NC1c1ccccc1OCc1ccccc1` (stereo not given), for which the percent of control (FP) was 104%.
The same measure for `CC(=O)N(CCN(C)C)c1nc2cc3c(cc2s1)OCO3`: 100%.
The same measure for `c1c2c(cc3sc(N4CCCCC4)nc13)OCCO2`: 101%; for `c1csc(Nc2nc3cc4c(cc3s2)OCO4)n1`: -40.2% (active); for `O=C(CCn1nnc2cc(S(=O)(=O)N3CCCC3)ccc21)N1CCN(c2ccccn2)CC1`: 112%.
In the case of `Cc1c(CNCCc2ccc(S(N)(=O)=O)cc2)c(C(=O)O)c(C)n1Cc1ccc(F)cc1` it was 98.6%; in that of `CC1(C)C2CCC1(CS(=O)(=O)Nc1cc(C(=O)N3CCOCC3)ccc1N1CC3CC(C1)c1cccc(=O)n1C3)C(=O)C2` (stereo not given), 106%; in that of `O=C(O)c1cc(N2C(=O)C3C4C=CC(CO)(O4)C3C2=O)ccc1Cl` (stereo not given), 103%.
As to `CCN(CC)c1ccc2cc(C(N)=O)/c(=N\NC(=O)c3ccccc3)oc2c1`, the percent of control (FP) was -46.7% (active).
With `CCN(CC)c1ccc2cc(C(=O)NC(C)=O)c(=Nc3ccccc3OC)oc2c1`, the percent of control (FP) is 114%.
Consider `CCN(CC)c1ccc2cc(C(=O)NC(C)=O)c(=Nc3ccc(F)cc3F)oc2c1`, for which the percent of control (FP) was 117%.
In the case of `O=S(=O)(NCc1ccco1)c1ccc(Cl)cc1` it was 101%; in that of `Cc1ccc2ccc3cc(C(=O)NC4CCCC4)nc3c2[nH]1`, 112%.
The same measure for `O=C1/C(=C/c2ccc(Br)cc2)C=C(c2ccccc2)N1c1ccccc1Br`: 119%.
In the case of `COc1ccccc1N1C(=O)/C(=C/c2ccc(Cl)cc2)C=C1c1ccccc1` it was 78.1% (active); in that of `O=C1/C(=C/c2ccc([N+](=O)[O-])cc2)C=C(c2ccccc2)N1c1cccc(Cl)c1Cl`, 109%.
For the compound `CC(C)NC(=O)C1=CC(c2ccco2)=NS(=O)(=O)N1C`, the percent of control (FP) is 107%.
In the case of `Cc1[nH]c(C(=O)Nc2ccc(F)cc2)c(C)c1S(=O)(=O)N1CCCC1` it was 112%.
The same measure for `Cc1cc(C)nc(NS(=O)(=O)c2ccc(NC(=O)C(C)Oc3ccc(Cl)cc3Cl)cc2)n1` (stereo not given): 111%; for `CC1=NOC(=O)C1C(c1cccc(Br)c1)c1c(C)[nH]n(-c2ccccc2)c1=O` (stereo not given): 48.2% (active); for `Cc1[nH]n(-c2ccccc2)c(=O)c1C(c1ccc(C(F)(F)F)cc1)c1c(C)[nH]n(-c2ccccc2)c1=O`: 92.3%.
The same measure for `COc1ccc(C(=O)Oc2ccc(C(c3c(C)[nH]n(-c4ccccc4)c3=O)c3c(C)[nH]n(-c4ccccc4)c3=O)cc2)cc1`: 111%.
